Laboratory results from US9962420B2, “Compositions and methods for treating diabetes, fatty liver, cardiopathies, insulin resistance, carbohydrate and fat metabolism” (VALBIOTIS, priority 2014, dated 2018).

Protein sequences, listed by entry. Tags and fused reporters are not part of them.
UniProt P27487, whole entry: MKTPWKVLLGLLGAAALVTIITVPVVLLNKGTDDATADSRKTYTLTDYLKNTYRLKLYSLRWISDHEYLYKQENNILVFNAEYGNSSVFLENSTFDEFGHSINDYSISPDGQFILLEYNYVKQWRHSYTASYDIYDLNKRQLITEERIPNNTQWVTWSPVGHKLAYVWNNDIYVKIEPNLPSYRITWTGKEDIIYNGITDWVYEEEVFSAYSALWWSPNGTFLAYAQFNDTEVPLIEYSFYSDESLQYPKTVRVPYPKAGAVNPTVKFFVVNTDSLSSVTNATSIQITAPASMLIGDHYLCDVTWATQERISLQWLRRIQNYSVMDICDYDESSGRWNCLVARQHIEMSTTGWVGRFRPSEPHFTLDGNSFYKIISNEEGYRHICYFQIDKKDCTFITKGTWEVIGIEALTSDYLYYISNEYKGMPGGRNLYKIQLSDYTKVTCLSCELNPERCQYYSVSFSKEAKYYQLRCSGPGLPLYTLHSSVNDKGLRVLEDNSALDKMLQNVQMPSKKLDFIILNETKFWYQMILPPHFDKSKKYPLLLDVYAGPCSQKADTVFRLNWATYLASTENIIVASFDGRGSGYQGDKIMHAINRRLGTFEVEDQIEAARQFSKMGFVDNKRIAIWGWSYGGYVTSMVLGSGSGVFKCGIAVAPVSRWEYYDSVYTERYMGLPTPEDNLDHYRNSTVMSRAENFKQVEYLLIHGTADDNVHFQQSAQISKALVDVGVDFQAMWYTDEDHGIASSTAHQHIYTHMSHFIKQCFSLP

Biological target: DPP-IV human recombinant expressed in SF9 cells (Homo sapiens, UniProt P27487)
Experiment: Test of inhibition of DPP-IV
Assay type: biochemical

CC[C@H](C)[C@H](N)C(=O)N1CCC[C@H]1C(=O)N[C@H](C(=O)O)[C@@H](C)CC [Diprotin A, diprotin A]
% of inhibition DPP-IV (concentration of sample set at 250 μg/mL): 89.3%
% of inhibition DPP-IV (concentration of sample set at 1.25 mg/mL): 100%
